This is an account of results in US8815882B2, “Pyrazole aminopyrimidine derivatives as LRRK2 modulators” (Genentech, Inc., priority 2010, dated 2014).

Chains of the proteins cited; added tags and fusions are not shown.
UniProt Q5S007, whole entry G2019S: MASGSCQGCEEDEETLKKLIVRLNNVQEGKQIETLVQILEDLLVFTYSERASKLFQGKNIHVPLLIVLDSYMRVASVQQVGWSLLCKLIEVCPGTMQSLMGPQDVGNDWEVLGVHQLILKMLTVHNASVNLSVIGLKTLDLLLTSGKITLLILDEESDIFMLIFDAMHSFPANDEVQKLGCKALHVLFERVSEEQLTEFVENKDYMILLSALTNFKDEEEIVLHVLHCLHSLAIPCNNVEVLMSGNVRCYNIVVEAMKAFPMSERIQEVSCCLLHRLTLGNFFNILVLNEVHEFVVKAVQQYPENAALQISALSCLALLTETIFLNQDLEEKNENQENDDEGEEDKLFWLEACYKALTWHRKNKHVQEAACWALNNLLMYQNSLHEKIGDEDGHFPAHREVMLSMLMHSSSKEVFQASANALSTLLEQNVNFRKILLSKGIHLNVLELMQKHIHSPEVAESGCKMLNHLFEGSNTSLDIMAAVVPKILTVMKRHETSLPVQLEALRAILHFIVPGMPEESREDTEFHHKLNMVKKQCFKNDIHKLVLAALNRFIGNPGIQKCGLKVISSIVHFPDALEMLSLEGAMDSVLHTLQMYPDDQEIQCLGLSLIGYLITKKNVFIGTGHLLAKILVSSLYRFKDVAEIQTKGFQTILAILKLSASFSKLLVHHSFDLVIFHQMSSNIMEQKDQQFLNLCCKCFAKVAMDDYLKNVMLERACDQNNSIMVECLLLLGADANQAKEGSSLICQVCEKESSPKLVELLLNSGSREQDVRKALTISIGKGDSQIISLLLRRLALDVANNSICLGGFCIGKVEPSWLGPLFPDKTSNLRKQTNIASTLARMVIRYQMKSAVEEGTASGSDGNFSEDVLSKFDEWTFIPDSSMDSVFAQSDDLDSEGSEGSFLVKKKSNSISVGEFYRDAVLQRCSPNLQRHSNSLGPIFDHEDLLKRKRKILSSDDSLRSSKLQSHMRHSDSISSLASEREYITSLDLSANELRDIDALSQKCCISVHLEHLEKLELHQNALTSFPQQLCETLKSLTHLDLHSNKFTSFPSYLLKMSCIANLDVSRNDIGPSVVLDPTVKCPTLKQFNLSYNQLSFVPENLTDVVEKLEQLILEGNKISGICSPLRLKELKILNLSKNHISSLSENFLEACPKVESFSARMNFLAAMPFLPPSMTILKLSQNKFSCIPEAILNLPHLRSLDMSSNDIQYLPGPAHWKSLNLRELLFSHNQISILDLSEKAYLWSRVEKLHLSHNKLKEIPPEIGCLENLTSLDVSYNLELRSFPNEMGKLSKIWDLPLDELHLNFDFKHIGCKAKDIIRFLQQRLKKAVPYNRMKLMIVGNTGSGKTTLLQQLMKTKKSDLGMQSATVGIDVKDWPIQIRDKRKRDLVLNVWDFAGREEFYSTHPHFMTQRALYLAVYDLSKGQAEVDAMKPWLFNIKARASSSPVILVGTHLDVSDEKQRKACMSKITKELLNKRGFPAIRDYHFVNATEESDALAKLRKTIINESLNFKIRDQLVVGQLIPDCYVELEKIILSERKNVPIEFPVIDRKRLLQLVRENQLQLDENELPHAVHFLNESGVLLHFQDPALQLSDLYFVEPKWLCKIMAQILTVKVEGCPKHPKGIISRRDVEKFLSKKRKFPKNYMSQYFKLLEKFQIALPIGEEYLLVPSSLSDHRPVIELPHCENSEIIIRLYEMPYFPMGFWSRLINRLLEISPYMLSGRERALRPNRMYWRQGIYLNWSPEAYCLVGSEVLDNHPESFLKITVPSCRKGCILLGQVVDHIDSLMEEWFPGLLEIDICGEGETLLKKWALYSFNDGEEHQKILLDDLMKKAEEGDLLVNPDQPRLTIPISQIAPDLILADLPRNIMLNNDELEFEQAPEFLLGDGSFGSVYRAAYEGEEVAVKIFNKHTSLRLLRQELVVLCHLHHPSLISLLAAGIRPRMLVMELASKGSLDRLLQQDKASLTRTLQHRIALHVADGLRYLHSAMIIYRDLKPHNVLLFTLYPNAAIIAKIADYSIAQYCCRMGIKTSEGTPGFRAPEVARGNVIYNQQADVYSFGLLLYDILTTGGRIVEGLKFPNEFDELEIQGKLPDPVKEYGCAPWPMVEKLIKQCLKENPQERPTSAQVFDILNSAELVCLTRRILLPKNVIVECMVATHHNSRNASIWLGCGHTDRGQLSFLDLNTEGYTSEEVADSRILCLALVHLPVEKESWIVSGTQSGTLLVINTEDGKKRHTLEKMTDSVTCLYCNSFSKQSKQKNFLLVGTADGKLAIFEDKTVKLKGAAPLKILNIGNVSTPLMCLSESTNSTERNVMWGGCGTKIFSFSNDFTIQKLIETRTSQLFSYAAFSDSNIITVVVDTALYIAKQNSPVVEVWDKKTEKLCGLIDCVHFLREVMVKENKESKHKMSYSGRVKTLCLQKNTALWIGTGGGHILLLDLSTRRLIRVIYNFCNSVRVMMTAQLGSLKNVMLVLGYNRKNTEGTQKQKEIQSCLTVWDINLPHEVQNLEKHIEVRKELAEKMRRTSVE

For this test, the target named is LRRK2 (Homo sapiens, UniProt Q5S007, G2019S). Description: In Vitro LRRK2 Assay (LabChip 3000, fluorescently-labeled peptide substrate, ATP). The test is classed as biochemical. The note with it: read-out: LRRK2 Ki (KI), Table 8.

For orientation: Ki means the dissociation constant of the complex between target and ligand, obtained from inhibition or displacement.

For the molecule `CNc1nc(Nc2cnn([C@H]3CCN(C4COC4)C3)c2C)ncc1C(F)(F)F`, the Ki stood at 58 nM.
